Results reported in patent US7557215B2, “Anthraquinone compounds as anti cancer compounds” (Somanta Limited, priority 2003, dated 2009).

Test system: A2780
Test: Inhibition of cell growth, A2780 wild type ovarian carcinoma cell line
Conditions: read-out: Inhibition of cell growth A2780 nM (IC50), Table 2

Substance	IC50
1-{[2-(2,6-Dichloromethylpiperidin-1-yl)ethyl]-amino}-4-{[(2-dimethylamino)ethyl]amino}-5,8-dihydroxyanthracene-9,10-dione	24 nM
1-{[2-(2-Chloromethylpiperidin-1-yl)ethyl]-amino}-4-{[(2-dimethylamino)ethyl]amino}-5,8-dihydroxyanthracene-9,10-dione	40 nM
1-{[2-(2-Chloromethylpyrrolidin-1-yl)ethyl]-amino}-4-{[(2-Dimethylamino)ethyl]amino}-5,8-dihydroxyanthracene-9,10-dione	29 nM
1-{[2-(3-Chloropiperidin-1-yl)ethyl]amino}-4-{[(2-dimethylamino)ethyl]amino}-5,8-dihydroxyanthracene-9,10-dione	9 nM
1-{[2-(3-Chloropyrrolidin-1-yl)ethyl]amino}-4-{[(2-dimethylamino)ethyl]amino}-5,8-dihydroxyanthracene-9,10-dione	68 nM
1-{[2-(4-Chloropiperidin-1-yl)ethyl]amino}-4-{[(2-dimethylamino)ethyl]amino}-5,8-dihydroxyanthracene-9,10-dione	576 nM
